# Values quoted from earlier work in patent publication US7429374B2, “Process for the measurement of the potency of glatiramer acetate” (Teva Pharmaceutical Industries, Ltd., priority 2001, dated 2008).
# System: albumin and other serum proteins
# Conditions: previous studies; cited from earlier work
substance,measurement,value
"L-glutamic acid polymer with L-alanine, L-lysine and L-tyrosine, acetate (salt) [GA]",binding to serum proteins,binds to albumin and to other serum proteins
